The text below walks through data of PMC6150325 (Molecules : A Journal of Synthetic Chemistry and Natural …, 2017).

This assay has as its target viral influenza A/California/04/2009 (H1N1) neuraminidase (H1N1-NA) (Influenza A virus (A/California/04/2009(H1N1)), UniProt C3W5S3). The assay is described as follows: biochemical.

The structures appear in SMILES notation. Values joined by “and” are separate entries in the source; they are usually repeats but may differ in a detail not shown here. Identical values can stand only once.

For `CCC(CC)O[C@@H]1C=C(C(=O)O)C[C@H](N)[C@H]1NC(C)=O` [oseltamivir carboxylate, reference compound], the IC50 is about 0.01 µM (IC50); 0.0102 µM and 0.01 µM (IC50 (Viral)).

In the case of `CC(=O)N[C@H]1[C@H]([C@H](O)[C@H](O)CO)OC(C(=O)O)=C[C@@H]1N=C(N)N` [zanamivir, 2,4-dideoxy-2,3-didehydro-4-guanidino-N-acetylneuraminic acid, reference compound], the IC50 was about 0.01 µM (IC50); 0.0111 µM and 0.01 µM (IC50 (Viral)).
